Compound activity as filed in PubChem BioAssay.
A selection: hits, their analogues and other compounds. The true share with any hit is near 16%.
TDP1 cell noCPT: qHTS for Inhibitors of human tyrosyl-DNA phosphodiesterase 1 (TDP1): qHTS in cells in absence of CPT; 15% of 420,000 active; AID 686978, 2013; DT40 Tdp1-/- hTDP1 cells, no CPT, ATP luminescence, 48 h; Potency, µM (doses to about 46.2 µM), hits mostly inhibitors; also: nearly all actives have a fitted effect of over 55% in size
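Compound effects on proliferation are scored in DT40 Tdp1-/-;hTDP1 cells in the absence of CPT. ATP levels (CellTiter-Glo luminescence) are recorded after a ≥48 hr, 37 °C incubation.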
miR-21 reporter: miR-21 reporter, rising signal; HeLa miR-21 FLuc reporter, luciferase, 48 h; Potency, µM (titrated, usually from 38.3 µM); AID 2288; 340,000 tested, under 10 active; active = well fitted rising curve with a large enough effect; inconclusive = small, poorly fitted or top-dose-only effect; inactive = no such curve, though single readings can be large or run the other way;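 further: miR-21 action dims this reporter so a rising signal means less miR-21 action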
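Compounds were titrated across several concentrations (up to approximately 40 uM) and incubated 48 hours with HeLa miR-21-FLuc reporter cells (miR-21 target sequence downstream of FLuc, endogenous miR-21). Readout was firefly luciferase luminescence after lytic detection reagent.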
DT40 TDP1 CPT: DT40-hTDP1 cell growth loss with CPT. chicken DT40 Tdp1-/-;hTDP1 cells + 20 nM CPT, ATP luminescence, 48 h. Potency, µM (doses to about 46.2 µM), most hits filed as inhibitors. 12% of 420,000 active. AID 686979; also: nearly all actives have a fitted effect of over 55% in size
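Cell growth measured by CellTiter-Glo luminescence after a minimum 48 h, 37 C compound exposure with 20 nM CPT in Tdp1-knockout DT40 cells stably expressing hTDP1, seeded 400/well; qHTS titration format.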
TDP1 inh: TDP1 (human) enzyme inhibition | Q9NUW8 | recombinant TDP1, AlphaScreen DNA substrate cleavage | AID 485290 | Potency, µM (series often up to 130 µM), actives largely listed as inhibitors | 0.28% of 350,000 active; also: nearly all actives have a fitted effect of over 40% in size
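Here, a 5' biotin and 3' phosphotyrosine-FITC DNA oligonucleotide reports Tdp1 activity: intact substrate bridges AlphaScreen beads, while cleavage leaves a 3' phosphate and drops signal. All incubations at room temperature.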
uPA generation: inhibitors of cell surface uPA generation | cell surface uPA generation assay, qHTS | Potency, µM (top dose mostly 38.3 µM), actives largely listed as inhibitors | 0.31% of 330,000 active | AID 540303; active = well fitted inhibition curve with a large enough effect; inconclusive = small, poorly fitted or top-dose-only effect; inactive = no such curve, though single readings can be large or run the other way; tested in mouse RAW 264.7 cells; also: nearly all actives have a fitted effect of over 55% in size
Each line names hits and unclear results; the compound was inactive in the other large screens. Unless noted, calls follow the shape of the dose curve; as a rule, active = well fitted curve in the direction sought with a large enough effect; inconclusive = small, poorly fitted or top-dose-only effect, or another doubt; inactive = no such curve, though single readings can be large; an effect the other way counts as inactive or inconclusive.

O=C(Nc1ccc2nc(SCC(=O)N3CCCC3)sc2c1)c1ccc(F)cc1	none (no result: uPA generation)
O=C(Nc1ccc2nc(SCC(=O)N3CCOCC3)sc2c1)c1cccc(F)c1	TDP1 cell noCPT 21µM, DT40 TDP1 CPT 23µM (no result: uPA generation)
CCCC(=O)Nc1ccc2nc(SCC(=O)N3CCCC3)sc2c1	TDP1 cell noCPT inconclusive
CC(C)(C)C(=O)Nc1ccc2nc(SCC(=O)N3CCOCC3)sc2c1	TDP1 cell noCPT inconclusive (no result: uPA generation)
O=C(Nc1ccc2nc(SCC(=O)N3CCCC3)sc2c1)c1cccc(F)c1	TDP1 cell noCPT 15µM, miR-21 reporter inconclusive, DT40 TDP1 CPT 21µM (no result: TDP1 inh, uPA generation)
O=C(Nc1ccc2nc(SCC(=O)N3CCOCC3)sc2c1)c1ccc(F)cc1	TDP1 cell noCPT 12µM, DT40 TDP1 CPT 16µM (no result: uPA generation)
O=C(N/C(=C/c1cccc([N+](=O)[O-])c1)C(=O)N1CCCC1)c1ccccc1	none
O=C(Cc1ccsc1-c1ccccc1)NO	TDP1 cell noCPT 21µM, DT40 TDP1 CPT 26µM
CN(CC(=O)Nc1ccccc1Cl)C(=O)C1CCN(S(=O)(=O)c2ccc3c(c2)OCCO3)CC1	TDP1 cell noCPT inconclusive, DT40 TDP1 CPT inconclusive (no result: miR-21 reporter, TDP1 inh)
CCOC(=O)CC1c2cc(OCC)c(OCC)cc2CCN1C(=O)Nc1cccc(Cl)c1 (stereo not given)	TDP1 cell noCPT 16µM, DT40 TDP1 CPT inconclusive (no result: uPA generation)
CCOc1cc2c(cc1OCC)C(CC(=O)OC)N(C(=O)Nc1cc(C)cc(C)c1)CC2 (stereo not given)	none (no result: uPA generation)
CCOc1cc2c(cc1OCC)C(CC(=O)OC)N(C(=O)Nc1cc(OC)ccc1OC)CC2 (stereo not given)	TDP1 cell noCPT 15µM, DT40 TDP1 CPT 21µM (no result: uPA generation)
COc1ccc2cc(C(=O)C3CCCN(C(=O)c4cc(=O)n(C)c(=O)n4C)C3)ccc2c1 (stereo not given)	TDP1 cell noCPT inconclusive
CN(C)CCCn1c2c(c(SCC(=O)Nc3cccc4ccccc34)nc1=O)CCC2	TDP1 cell noCPT inconclusive (no result: miR-21 reporter)
CCc1ccc(N2C(=O)C(Cl)=C(N3CCOCC3)C2=O)cc1	DT40 TDP1 CPT inconclusive
COc1ccc(N2C(=O)C(Cl)=C(N3CCOCC3)C2=O)cc1	TDP1 cell noCPT 29µM (no result: TDP1 inh)
CC1CCc2nc(/C(C#N)=C/c3ccncc3)sc2C1 (stereo not given)	TDP1 cell noCPT inconclusive, DT40 TDP1 CPT 18µM
CCNc1nc(C)cc(COC)c1C#N	none
Cc1ccc(Cn2c(C(=O)O)c(CNCCc3ccco3)c3ccc(C)cc32)cc1	none (no result: uPA generation)
Cc1ccc(Cn2c(C(=O)O)c(CNCc3ccccc3Cl)c3ccc(C)cc32)cc1	TDP1 cell noCPT inconclusive, DT40 TDP1 CPT 23µM (no result: uPA generation)
COc1ccc(Cn2c(C(=O)O)c(CNCCc3ccccc3Cl)c3ccc(C)cc32)cc1	TDP1 cell noCPT inconclusive, miR-21 reporter inconclusive, DT40 TDP1 CPT inconclusive (no result: uPA generation)
Cc1ccc(Cn2c(C(=O)O)c(CNCc3cccs3)c3ccc(C)cc32)cc1	TDP1 cell noCPT inconclusive, DT40 TDP1 CPT 15µM (no result: uPA generation)
Cc1ccc(N2C(=N)/C(=C3/Nc4ccccc4S3)C(c3ccccc3)C2=O)cc1 (stereo not given)	TDP1 cell noCPT 4.6µM, DT40 TDP1 CPT inconclusive
COc1ncnc2c1oc1ccccc12	none
CCOc1ccccc1NC(=O)CSc1ncnc2c1oc1ccccc12	TDP1 cell noCPT inconclusive, DT40 TDP1 CPT 29µM
Cc1cccc(NC(=O)CSc2nc3c(oc4ccccc43)c(=O)n2-c2ccccc2)c1C	TDP1 cell noCPT 21µM, DT40 TDP1 CPT inconclusive (no result: uPA generation)
CCc1ccc(NC(=O)CSc2nc3c(oc4ccccc43)c(=O)n2-c2cccc(C)c2)cc1	TDP1 cell noCPT inconclusive, DT40 TDP1 CPT inconclusive (no result: uPA generation)
CCOc1ccccc1Oc1ncnc2c1oc1ccccc12	TDP1 cell noCPT 21µM, DT40 TDP1 CPT 13µM (no result: uPA generation)
Cc1cccc(-n2c(SCC(=O)Nc3ccccc3C)nc3c(oc4ccccc43)c2=O)c1	TDP1 cell noCPT 5.2µM, DT40 TDP1 CPT 7.3µM (no result: uPA generation)
O=C(CSc1ncnc2c1oc1ccccc12)Nc1ccccc1F	none
CC(C)(C)c1cc(CCC(=O)NCc2ccccn2)cc(C(C)(C)C)c1O	DT40 TDP1 CPT inconclusive, uPA generation inconclusive
Cc1cc(C)cc(NC(=O)CSc2nc3c(oc4ccccc43)c(=O)n2-c2ccccc2)c1	TDP1 cell noCPT inconclusive
CCc1ccccc1NC(=O)CSc1nc2c(oc3ccccc32)c(=O)n1-c1ccccc1	TDP1 cell noCPT 18µM, DT40 TDP1 CPT 23µM (no result: uPA generation)
CCOc1ccccc1NC(=O)CSc1nc2c(oc3ccccc32)c(=O)n1-c1ccc(F)cc1	TDP1 cell noCPT 6.5µM, DT40 TDP1 CPT 8.2µM (no result: uPA generation)
CCOc1ccccc1NC(=O)CSc1nc2c(oc3ccccc32)c(=O)n1-c1ccc(C)c(C)c1	TDP1 cell noCPT inconclusive, DT40 TDP1 CPT inconclusive (no result: uPA generation)
COC(=O)N1CCC2(CC1)CCN(c1ccccc1)CC2	TDP1 cell noCPT inconclusive (no result: miR-21 reporter, TDP1 inh, uPA generation)
Cc1cc(C)c(C(=O)COC(=O)c2cc([N+](=O)[O-])ccc2N2CCOCC2)cc1C	TDP1 cell noCPT 18µM, DT40 TDP1 CPT inconclusive (no result: miR-21 reporter)
COc1ccccc1C(=O)COC(=O)c1cc([N+](=O)[O-])ccc1N1CCOCC1	TDP1 cell noCPT inconclusive, DT40 TDP1 CPT inconclusive (no result: miR-21 reporter)
Cc1ccc(COC(=O)c2cc([N+](=O)[O-])ccc2N2CCOCC2)cc1	none (no result: TDP1 cell noCPT, DT40 TDP1 CPT, uPA generation)
O=C(OCc1ccc([N+](=O)[O-])cc1)c1cc([N+](=O)[O-])ccc1N1CCOCC1	TDP1 cell noCPT 23µM, DT40 TDP1 CPT 16µM (no result: miR-21 reporter)
